The values that follow come from article PMC8689140 (Frontiers in Pharmacology, 2021).

Protein sequences, listed by entry. Tags and fused reporters are not part of them.
UniProt Q01827, whole entry: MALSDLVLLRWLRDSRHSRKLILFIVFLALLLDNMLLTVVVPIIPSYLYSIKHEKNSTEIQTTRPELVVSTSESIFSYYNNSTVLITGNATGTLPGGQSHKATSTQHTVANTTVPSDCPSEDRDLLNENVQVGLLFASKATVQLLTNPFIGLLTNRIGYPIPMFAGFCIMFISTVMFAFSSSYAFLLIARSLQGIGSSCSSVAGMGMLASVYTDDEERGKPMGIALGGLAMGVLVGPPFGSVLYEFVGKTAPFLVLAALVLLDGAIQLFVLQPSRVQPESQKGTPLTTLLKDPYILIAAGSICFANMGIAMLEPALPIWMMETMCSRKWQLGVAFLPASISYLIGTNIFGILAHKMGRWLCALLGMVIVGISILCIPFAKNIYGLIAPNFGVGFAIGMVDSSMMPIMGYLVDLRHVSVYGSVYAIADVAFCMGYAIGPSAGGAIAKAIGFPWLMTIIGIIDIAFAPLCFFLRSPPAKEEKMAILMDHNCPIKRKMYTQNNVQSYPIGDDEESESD

The target in one experiment is T1, rat brain VMAT2 (Rattus norvegicus, UniProt Q01827).
T1 construct: the whole rat brain (excluding the cerebellum) or striatal were homogenized; tissue Eurofins Panlabs (assay performed by); host or cells: rat brain (without cerebellum) or striatum, synaptic vesicle suspension
As to the kind of experiment: VMAT2 binding assay (inhibition of [3H]HTBZ binding).

The target in another experiment is T2, rat VMAT2 (Rattus norvegicus, UniProt Q01827).
T2 construct: in vitro [^3H]DA uptake assay in rat striatal synaptosomes; from tissue; host or cells: rat striatal synaptosomes / vesicular suspension
As to the kind of experiment: [3H]DA uptake assay in rat striatal synaptosomes. In kind it is biochemical. As to the method:
[^3H]DA (dihydroxyphenylethyethylamine, 3,4-[ring-2,5,6-^3H]; specific activity, 28.0 Ci/mmol) was purchased from Perkin Elmer. […] After drying, the filter plate was sealed with unifilter-96 back sealing tape and added 50 μl of microscint-20 (Perkin Elmer), then sealed the top of the filter plate with TopSeal-A. The radioactivity was measured by a TopCount scintillation counter. GraphPad Prism 5.0 was used to analyze data.

SMILES strings stand for the structures.

As a reminder, the IC50 is the concentration that gives 50% inhibition. A high value points to lower potency. In general, Ki refers to the dissociation constant of the complex between target and ligand, obtained from inhibition or displacement.

At rat brain VMAT2, `COc1cc2c(cc1OC)C1CC(=O)C(CC(C)C)CN1CC2` (stereo not drawn) [TBZ, tetrabenazine, reference compound] had an IC50 of 23 nM and a Ki of 13.5 nM. It took 7.17 nM to reach half-maximal inhibition on rat VMAT2 (IC50).
